Screens (PubChem BioAssay)
HCMV NEC inh: inhibitors of HCMV UL50-UL53 interaction, biochemical, HTRF | AID 1918969, 2023 | normalized percent inhibition | HCMV UL50-UL53 nuclear egress complex (human cytomegalovirus) | actives 0.15% (n = 190,000) | inhibition, % (no concentration beside the values); in the data active = inhibition above about 27%, passing the limit was not always enough
GIV-Gai inh: blocks GIV peptide binding to rat Galpha-i3. P08753. Galpha-i3/FITC-GIV peptide fluorescence polarization, 90 min; hits give low values; scaled: aluminum fluoride 0%, vehicle 100%. percent of control (FP), % (test concentration not listed). hit rate 0.42% among 210,000;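 active means replicate mean at 85% of control or lower, very high polarization wells dropped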;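 further: wells of about 15 µL received 100 nL stock; the first replicate is given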
Hits are given with their value; – = inactive; · = no result given. In the library only some 0.43% were active in any assay of this set; here they are far more common.

SMILES | HCMV NEC inh | GIV-Gai inh
CC(=O)Nc1ccc(N=Cc2c(C)[nH]n(-c3ccc(C)c(C)c3)c2=O)cc1 | · | –
Cc1ccc(-n2[nH]c(=O)c(N=O)c2O)cc1C | · | 85
O=C(C1CCCCCC1)N1CCc2[nH]nc(C3CCC3)c2C1 | – | ·
COc1ccc(C2C(C(=O)Nc3ccc(C)cc3)=C(C)Nc3ncnn32)cc1 (configuration not stated) | – | –
Cc1cc2nc3c(=O)[nH]c(=O)nc-3n(C[C@@H](O)[C@@H](O)[C@@H](O)COP(=O)(O)O)c2cc1C | – | ·
Cc1cc2nc3c(=O)[nH]c(=O)nc-3n(C(O)C(O)C(O)C(O)CO)c2cc1C (configuration not stated) | – | -74
COC(=O)c1c(C)[nH]c(C(=O)OCC(=O)Nc2ccccc2)c1C | – | ·
Cc1noc(C)c1C(=O)OCCCCN1C(=O)c2ccccc2C1=O | – | ·
CCCS(=O)(=O)N1N=C(c2ccc(C)cc2)CC1c1ccco1 (configuration not stated) | – | 7.4
CCCS(=O)(=O)N1N=C(c2ccc(Cl)cc2)CC1c1ccco1 (configuration not stated) | – | –
O=C(Nc1nc2c(s1)CCCC2)c1ccncc1 | – | –
CC(NC(=O)/C=C1\Sc2ccccc2NC1=O)c1ccccc1 (configuration not stated) | · | –
C=CCn1c(SCC(=O)OCCCCC)nc2sc3c(c2c1=O)CC(C)(C)OC3 | – | –
N#Cc1c(N2CCCC2)nc(N)c2c(N)nc(N3CCCC3)cc12 | 97 | ·
Cc1cc(C)c(C#N)c(N2CCCC2)n1 | – | –
Nc1cnc2cccc3c2c1-c1ccccc1C3=O | – | -74
Cc1nc2c3c(cccc3n1)C(=O)c1ccccc1-2 | – | –
CCCN1C(=O)/C(=C/c2c(NCC)nc3ccccn3c2=O)SC1=S | – | -75
O=C1/C(=C/c2c(NCCCn3ccnc3)nc3ccccn3c2=O)SC(=S)N1CC1CCCO1 (configuration not stated) | · | –
C=CCNc1nc2ccccn2c(=O)c1/C=C1\SC(=S)N(CCOC)C1=O | – | -75
C=CCNc1nc2ccccn2c(=O)c1/C=C1\SC(=S)N(Cc2ccc3c(c2)OCO3)C1=O | · | -27
CN1C(=O)/C(=C/c2c(N3CCSCC3)nc3ccccn3c2=O)SC1=S | – | –
O=C1/C(=C/c2c(NCc3ccccc3)nc3ccccn3c2=O)SC(=S)N1CC1CCCO1 (configuration not stated) | · | –
C=CCNc1nc2ccccn2c(=O)c1/C=C1\SC(=S)N(C)C1=O | – | -24
O=C1/C(=C/c2c(NCC3CCCO3)nc3ccccn3c2=O)SC(=S)N1C1CCCCC1 (configuration not stated) | · | –
SMILES | HCMV NEC inh | GIV-Gai inh
Cc1nc(C)n(CC(O)COc2ccc3c4c(c(=O)oc3c2)CCC4)n1 (configuration not stated) | – | –
Cc1ccc(NC(=O)OCC(F)(F)F)cc1Cl | – | ·
CN1CCN(c2ccc(C3Nc4ccc5ccccc5c4C4=C3C(=O)CC(C)(C)C4)cc2[N+](=O)[O-])CC1 (configuration not stated) | · | –
CCCCCCCNC(=O)C1CCN(c2ccc(-c3ccccc3)nn2)CC1 | 31 | –
CC(C)CNC(=O)C1CCN(c2ccc(-c3ccccc3)nn2)CC1 | – | –
COc1ccc(-n2nc(C(=O)N3CCN(c4ccccc4)CC3)c(=O)n(C)c2=O)cc1 | – | –
O=C(/C=C/c1ccco1)Nc1ccccc1C(=O)c1ccccc1 | – | –
CCCN1CC=C2C(C#N)=C(N)C(C#N)(C#N)C(c3ccc(F)cc3F)C2C1 (configuration not stated) | – | 44
CC(=O)N1CC=C2C(C#N)=C(N)C(C#N)(C#N)[C@H](c3ccc(F)cc3F)[C@H]2C1 | – | ·
N#CCc1c(C#N)c(N)nc(N2CCc3ccccc32)c1C#N | 35 | ·
N#CCc1c(C#N)c(N)nc(N2CCN(S(=O)(=O)c3ccccc3)CC2)c1C#N | – | ·
CN(C)c1ccc(C=C2C(=O)OC(C)(C)OC2=O)cc1 | – | –
CCN(CC)c1ccc(C=C2C(=O)OC3(CCCC3)OC2=O)cc1 | – | -26
CCN(CC)c1ccc(C=C2C(=O)OC(c3ccccc3)OC2=O)cc1 (configuration not stated) | – | ·
CN(C)c1ccc(C=C2C(=O)OC(C)(C(C)(C)C)OC2=O)cc1 (configuration not stated) | – | 17
CC1(C)CC(NC(=O)c2ccc(C#N)cc2)CC(C)(C)N1 | – | ·
Cc1ccccc1-c1noc(COC(=O)c2ccc(C#N)cc2)n1 | – | ·
C=CCN(CC=C)S(=O)(=O)c1ccc(C(=O)O)cc1 | – | ·
Cc1nc(-c2ccccc2)ncc1C(=O)NCc1cccc(Cl)c1 | – | –
COc1cccc(C(=O)c2sc3nsc(SCc4ccccc4)c3c2N)c1 | – | -42
COc1cccc(C(=O)Nc2nnc(SCc3ccccc3)s2)c1 | – | ·
